Conditions: rabbit, in vivo

## HPMC
  increase in the amount of para-amino-clonidine found in the aqueous humor: ~4.0 fold
